In patent US12612372B2, “Oxopyridazinyl-phenyl-carbonohydrazonoyl dicyanide compound and use thereof” (KOREA INSTITUTE OF SCIENCE AND TECHNOLOGY, priority 2020, dated 2026):
pIC50: −log10 of the molar value.

By UniProt entry, the sequences of proteins in these tests, tags left out. Residues count along the entry.
UniProt P10636, 2-441 isoform P10636-8 limits assumed: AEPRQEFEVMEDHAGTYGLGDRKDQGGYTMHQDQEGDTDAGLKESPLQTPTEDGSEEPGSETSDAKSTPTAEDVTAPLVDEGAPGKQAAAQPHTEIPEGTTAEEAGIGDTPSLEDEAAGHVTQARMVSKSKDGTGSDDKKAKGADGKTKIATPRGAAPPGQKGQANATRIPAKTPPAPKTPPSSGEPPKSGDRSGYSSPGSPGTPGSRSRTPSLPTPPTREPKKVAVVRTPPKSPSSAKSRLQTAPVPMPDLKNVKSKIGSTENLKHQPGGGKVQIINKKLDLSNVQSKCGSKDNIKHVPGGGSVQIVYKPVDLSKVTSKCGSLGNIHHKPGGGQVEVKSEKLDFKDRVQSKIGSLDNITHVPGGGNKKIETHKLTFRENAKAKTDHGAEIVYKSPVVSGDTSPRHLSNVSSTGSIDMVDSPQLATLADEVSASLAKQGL

Molecular target: T1, tau protein (Homo sapiens, UniProt P10636)
T1 construct: fused on or other part: Split Venus fragments VN173 and VC155, each fused to one copy of tau as BiFC reporter halves
Assay: Tau-BiFC cell model, Forskolin-induced tau protein aggregation
Format: cell-based
Details: 48 hours
Description: In order to select novel tau protein aggregation—inhibiting substances, tau-BiFC cell model, in which formation of tau oligomers in living cells is easily observed, was used. Tau-BiFC cells were aliquoted into a 384-well plate. […] After 48 hours, nuclei in the cells were stained using Hoechst (at a treatment concentration of 2 μg/mL), and BiFC fluorescence intensity was automatically measured using Operetta (PerkinElmer) to count stained nuclei in each well out of the entire well plate. […] Furthermore, the degree of cytotoxicity induced by the newly synthesized compound was also measured based on the 100% cell viability of the group treated only with Forskolin as a reference, and the cytotoxicity value of each compound was calculated using the equation “(number of stained nuclei in group treated with compound/number of stained nuclei in group treated with Forskolin)×100”.
After 48 hours, tau protein aggregation reaction and degrees of cytotoxicity were analyzed by observing images of the cells. IC50 and toxicity of the compounds were analyzed by nonlinear regression analysis of Prism software (Graph Pad).

CC(C)N1N=C(c2ccc(NN=C(C#N)C#N)cc2)CCC1=O [Example 1, (4-(1-isopropyl-6-oxo-1,4,5,6-tetrahydropyridazin-3-yl)phenyl)carbonohydrazonoyl dicyanide]
Tau BiFC in cells Response (%, @10 μM) (10 μM compound, BiFC fluorescence relative to Forskolin-only group (100% tau protein-aggregated state)): 0% | pIC50 (Tau BiFC in cells IC50, tau-BiFC cells, Forskolin 30 μM): 6.52
